Data: patent US11472791B2 (dated 2022)

The chains behind the UniProt entries cited, without tags or fusion partners. Residues count along the entry.
UniProt O60674, 828-1132: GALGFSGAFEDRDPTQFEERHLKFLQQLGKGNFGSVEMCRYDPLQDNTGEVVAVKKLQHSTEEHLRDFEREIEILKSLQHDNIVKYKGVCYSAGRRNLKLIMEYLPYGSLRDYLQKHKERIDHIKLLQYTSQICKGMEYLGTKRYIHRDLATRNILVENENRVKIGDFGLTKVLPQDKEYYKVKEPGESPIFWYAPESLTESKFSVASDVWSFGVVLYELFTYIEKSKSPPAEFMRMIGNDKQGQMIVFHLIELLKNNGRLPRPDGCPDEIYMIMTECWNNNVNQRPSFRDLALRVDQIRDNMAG

Experiments:
Format in all cases: biochemical
CDK2/Cyclin E1 = CDK2/Cyclin E1 (Homo sapiens (Human), UniProt P24941); test: CDK2/Cyclin E1 HTRF enzyme activity assay
human JAK1 = human JAK1 (Homo sapiens, UniProt P23458); test: JAK inhibitory activity assay (JAK1)
JAK2 = JAK2 (Homo sapiens (Human), UniProt O60674); test: JAK inhibitory activity assay (JAK2)

Structure (SMILES): CNCc1ccc(-n2cc(-c3nc(NC4CCN(S(C)(=O)=O)CC4)ncc3C#N)cn2)c(Cl)c1 [Example 113, 4-(1-(2-Chloro-4-((methylamino)methyl)phenyl)-1H-pyrazol-4-yl)-2-((1-(methylsulfonyl)piperidin-4-yl)amino)pyrimidine-5-carbonitrile]
- IC50 (CDK2/Cyclin E1): < 0.05 µM
- IC50 (human JAK1): ≥ 10 µM
- IC50 (JAK2): ≥ 10 µM

Structure (SMILES): [2H]C([2H])([2H])NCc1ccc(-n2cc(-c3nc(NC4CCN(S(C)(=O)=O)CC4)ncc3C#N)cn2)c(Cl)c1 [Example 138, 4-(1-(2-Chloro-4-(((methyl-d3)amino)methyl)phenyl)-1H-pyrazol-4-yl)-2-((1-(methylsulfonyl)piperidin-4-yl)amino)pyrimidine-5-carbonitrile]
- IC50 (CDK2/Cyclin E1): < 0.05 µM
- IC50 (human JAK1): ≥ 10 µM
- IC50 (JAK2): ≥ 10 µM
